# Paper doi:10.1101/2025.08.13.670122v1 (bioRxiv, 2025)
# The chains behind the UniProt entries cited, without tags or fusion partners.
# UniProt P25095, whole entry: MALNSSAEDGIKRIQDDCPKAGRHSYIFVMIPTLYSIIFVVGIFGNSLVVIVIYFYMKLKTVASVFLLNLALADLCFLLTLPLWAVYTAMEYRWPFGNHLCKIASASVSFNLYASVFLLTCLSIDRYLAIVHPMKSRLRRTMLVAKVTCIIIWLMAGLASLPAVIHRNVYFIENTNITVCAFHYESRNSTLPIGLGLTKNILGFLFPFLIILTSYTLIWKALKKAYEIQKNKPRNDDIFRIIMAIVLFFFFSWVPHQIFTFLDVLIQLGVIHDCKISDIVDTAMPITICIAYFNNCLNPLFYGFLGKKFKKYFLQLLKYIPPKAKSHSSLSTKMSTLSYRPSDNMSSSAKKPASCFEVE
# Tests used:
# Assay type in all cases: cell-based
# [1] = molecular target: T1, AT1R (Homo sapiens, UniProt P30556); test: Rho BRET sensor (PKN-RBD-RlucII/rGFP-CAAX) in ΔG12/13 HEK293 cells expressing AT1R; set-up: expressed in transfected cells; host or cells: HEK293 cells, transient PEI transfection; details: ΔG12/13 HEK293/AT1R, response at 10 μM, normalised to AngII
# From the text: (§1) We utilized a clonal cell line HEK293, referred to hereafter as HEK293 cells, which has been previously described.[7],[8] As a gracious gift from A. Inoue (Tohoku University, Sendai, Miyagi, Japan), CRISPR Gαq/11 and Gα12/13 knockout cell lines (ΔGq/11 and ΔG12/13, respectively), were derived as previously explained.[48] In brief, a CRISPR-Cas9 system was used to target either GNAQ and GNA11 or GNA12 and GNA13 genes in HEK293T cells simultaneously to generate the Gαq/11 and Gα12/13 knockout cell lines. For the production of adenovirus, we utilized HEK293A cells. All cells were grown in DMEM supplemented with 10% FBS and Penicillin-Streptomycin-L-Glutamine (10000 IU penicillin, 10000 µg/mL Streptomycin, 200 mM L-Glutamine) at 37°C in T175 flasks under a 5% CO2 humidified chamber. Periodic testing was carried out for mycoplasma contamination (ABM™, Mycoplasma PCR Detection kit). […]
# (§2) On the day of the experiment, each well was washed with 80 µL of Tyrode’s buffer (140 mM NaCl, 2.7 mM KCl, 1 mM CaCl2, 12 mM NaHCO3, 5.6 mM D-glucose, 0.5 mM MgCl2, 0.37 mM NaH2PO4, 25 mM Hepes (pH 7.4)). […] Cells were then stimulated with increasing doses of the indicated ligand, and BRET signals were measured using a Tristar2 (Berthold) microplate reader 10 min later. […] BRET signals were then measured using a Synergy2 (BioTek) microplate reader. […]
# [2] = molecular target: T2, endogenous AT1R (Rattus norvegicus, UniProt P25095); test: PKC BRET sensor in rat primary VSMC with endogenous AT1R; details: for 12 and TRV027 response at 10 μM
# T2 construct: expressing low levels of endogenous AT1R; endogenous in cells; host or cells: rat primary VSMC, passages 13-15
# From the text: (§3) We next assessed the analogs’ ability to engage Gαq by assessing either the PKC or Rho responses in rat primary vascular smooth muscle cell (VSMC) culture, expressing low levels of endogenous AT1R (between 25–50 fmol/mg) (Figure 4, Table 6).
# (§4) The coding regions of the PKC-c1b sensor, PKN-RBD-RlucII, and rGFPcaax were PCR-amplified and subcloned into the KpnI/XhoI sites of the pENTR3C vector (Invitrogen), respectively. These were then transferred into the adenoviral expression vector pAd/CMV/V5-DEST (Invitrogen), via gateway cloning (pAD-CMV-PKC-c1b, pAD-CMV-PKN-RBD-RLucII, and pAD-CMV-rGFPcaax). Viruses containing the sensor codes were generated following a previously outlined process.[49] […] Viral titers were determined by serial dilution of adenovirus stock and subsequent infection of HEK293A cells in 96-well plates. 36 h after infection, cells were stained using an anti-hexon antibody (ab8249; Abcam), and hexon-expressing cells were tallied via fluorescence microscopy. […]
# (§5) On the day of the experiment, each well was washed with 80 µL of Tyrode’s buffer (140 mM NaCl, 2.7 mM KCl, 1 mM CaCl2, 12 mM NaHCO3, 5.6 mM D-glucose, 0.5 mM MgCl2, 0.37 mM NaH2PO4, 25 mM Hepes (pH 7.4)). […] Cells were then stimulated with increasing doses of the indicated ligand, and BRET signals were measured using a Tristar2 (Berthold) microplate reader 10 min later. […]
# [3] = molecular target: T1, AT1R; test: PKC BRET sensor in HEK293 cells expressing AT1R; set-up: expressed in transfected cells; host or cells: HEK293 cells, transient PEI transfection; details: response at 10 μM, normalised to AngII
# From the text: as §1, §2
# [4] = molecular target: T2, endogenous AT1R; test: Rho BRET sensor in rat primary VSMC with endogenous AT1R; details: for 12 and TRV027 response at 10 μM
# From the text: as §3, §4, §5
# [5] = molecular target: T1, AT1R; test: Gαq activation BRET (GABY sensor) in HEK293 cells expressing AT1R; set-up: expressed in transfected cells; host or cells: HEK293 cells, transient PEI transfection; details: response of the ligand at 10 μM, normalised to AngII
# From the text: as §1, §2
smiles,measurement,setting,value
"CC[C@H](C)[C@H](NC(=O)[C@H](Cc1ccc(O)cc1)NC(=O)[C@@H](NC(=O)[C@H](CCCNC(=N)N)NC(=O)CNC)C(C)C)C(=O)N[C@@H](Cc1c[nH]cn1)C(=O)N1CCC[C@H]1C(=O)N[C@H](C)C(=O)O [TRV027, reference compound]",Emax Rho Gαq/11 (% AngII),[1],13 % AngII
same,Emax PKC in VSMCs (% AngII),[2],1 % AngII
same,Emax PKC (% AngII),[3],3 % AngII
same,Emax Rho in VSMCs (% AngII),[4],3 % AngII
same,Emax Gαq (% AngII),[5],2 % AngII
